{"sequences": {"note": "The chains behind the UniProt entries cited, without tags or fusion partners.", "UniProt Q5BJF2, whole entry": "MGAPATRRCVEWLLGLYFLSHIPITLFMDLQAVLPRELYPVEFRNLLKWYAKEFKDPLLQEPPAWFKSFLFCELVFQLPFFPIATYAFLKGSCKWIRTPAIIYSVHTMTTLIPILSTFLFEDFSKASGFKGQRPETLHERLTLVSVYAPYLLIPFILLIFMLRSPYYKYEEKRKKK"}, "source": "paper PMC8867396", "about": "(Nature, 2021)", "origin": "cited, not measured here", "target": "human σ2 receptor (Homo sapiens, UniProt Q5BJF2)", "conditions": "read-out: σ2 affinity; well-established ligand; cited from earlier work", "data": [{"smiles": "COc1cccc2c1CCCC2CCCN1CCN(C2CCCCC2)CC1", "note": "(stereo not shown) [PB28, reference compound]", "values": [{"measurement": "Ki", "result": 5, "unit": "nM"}]}]}
